Compound activity (PubChem)
miR-122 sensor – blocks miR-122 activity in Huh7 sensor cells; Huh7 miR-122 Renilla luciferase sensor, 48 h; neutral wells = 0, positive control = 100; activation (reporter increase), % at 12.5 µM; 340,000 compounds, 0.3% hits; AID 602342;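 active = mean replicate activation score at least 90 and every replicate individually at or above 90; inconclusive = only one of the two criteria met; inactive = neither criterion met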;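 also: higher luciferase means less miR-122 activity so hits act as miR-122 inhibitors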
CFTR F508del cor – CFTR F508del correction in bronchial cells. CFBE cells, YFP halide quenching; stimulated with forskolin plus potentiator P3; % fluorescence drop versus neutral controls. activity (quench increase), % at 7.58 µM. 350,000 compounds, 0.36% hits;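 active = mean added fluorescence quench of at least 8% versus neutral control, with both replicates also reaching 8%; inconclusive = only one of the mean or replicate conditions met; inactive = mean below 8% and not both replicates reaching 8%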;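 also: cells transiently co-express mutant CFTR-F508del with the halide-sensitive YFP; corrector assay measuring rescue of mutant channel to the surface after 24 h compound exposure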
UUG fidelity – yeast start codon fidelity modulation; actives 0.13% (n = 350,000); activity score, % at 18.7 µM; S. cerevisiae UUG-firefly luciferase reporter, luminescence/redox ratio;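 active = replicate mean at a twofold rise or more, about +100% in these data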;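 note: firefly luciferase made from a UUG start codon reports start codon fidelity; reporter light over untreated wells divided by growth signal over untreated wells; some hits fall short of that in this replicate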
EWS-Fli block – EWS/Fli transcriptional activity inhibition; A673 NR0B1-luciferase reporter, viability-normalised; inhibition, % at 12.6 µM; 350,000 compounds, 0.67% hits;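 active = mean inhibition of at least 50% after viability correction, with every replicate also passing that limit; inconclusive = mean reaches 50% but only one of two replicates passes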;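 also: firefly luciferase signal divided by Alamar Blue viability fluorescence both relative to DMSO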
PglD DTNB – inhibitors of Campylobacter jejuni PglD acetyltransferase. 360,000 compounds, 0.098% hits. purified PglD enzyme, DTNB colorimetric CoA detection. AID 602405. inhibition, % at 12.5 µM; in the data active = inhibition above about 16%, passing the limit was not always enough; inconclusive = no clear call, values can overlap the other calls
LGR2 inh – blocks bursicon-induced cAMP signaling via Drosophila LGR2. inhibition, % at 9.99 µM. HEK293 LGR2, CRE-luciferase, bursicon-stimulated, 4 h. 380,000 compounds, 0.35% hits;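 active = drop in luminescence signal, shown as inhibition above about 50% in the replicate tests, limit read from the data, passing the limit was not always enough; inconclusive = probably only some replicates passing the limit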;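 also: agonist challenge used bursicon conditioned medium at about half maximal strength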
Each line names hits and unclear results; the compound was inactive in the other large screens. Most compounds without a hit are left out; they make up all but 1.3% or so of the library.

COc1ccc(C)cc1S(=O)(=O)NC1CC1	none
COc1ccc(Br)cc1S(=O)(=O)Nc1ncccc1C	none (no result: miR-122 sensor, UUG fidelity, PglD DTNB)
COc1ccc(C)cc1S(=O)(=O)NC1CCCC1	miR-122 sensor 170 (no result: CFTR F508del cor, EWS-Fli block, LGR2 inh)
CCOc1ccc(Br)cc1S(=O)(=O)NC1CCCC1	miR-122 sensor 93
O=C(COc1ccc(S(=O)(=O)NC2CCCCC2)cc1)NC1CCCC1	miR-122 sensor 245
Cc1ccnc(Nc2nc3ccccc3o2)n1	LGR2 inh 54 (no result: miR-122 sensor)
Cc1ccc2c(c1)N(CCC(=O)NCC1COc3ccccc3O1)C(=O)CO2 (configuration not stated)	none (no result: CFTR F508del cor, EWS-Fli block, LGR2 inh)
CCOC(=O)c1ccccc1NC(=O)COC(=O)CCC(=O)c1ccc(C)cc1	none
CCCOc1ccc(C(=O)C(CN2CCCC2)c2ccccc2)cc1 (configuration not stated)	EWS-Fli block 61 (no result: miR-122 sensor, UUG fidelity, PglD DTNB)
CCCCOc1ccc(C(=O)C(CN2CCOCC2)c2ccccc2)cc1 (configuration not stated)	none (no result: CFTR F508del cor, EWS-Fli block, LGR2 inh)
O=C(c1ccc(Cl)cc1)C(CN1CCCC1)c1ccccc1 (configuration not stated)	EWS-Fli block 65
O=C1NC[C@H](c2ccccc2)N(CCCCC2CCCCC2)C1=O	none (no result: miR-122 sensor, UUG fidelity, PglD DTNB)
CC(C)N1CCc2c(sc(NC(=O)c3ccc([N+](=O)[O-])o3)c2C(N)=O)C1	CFTR F508del cor 15
COCCCn1c(=O)/c(=C\c2ccc(OC(F)F)c(OC)c2)s/c1=C(/C#N)C(N)=O	none (no result: miR-122 sensor, UUG fidelity, PglD DTNB)
COCCCn1c(=O)/c(=C\c2ccccc2OC(F)F)s/c1=C(/C#N)C(N)=O	miR-122 sensor 167
CCOc1ccc(-c2cccc(NS(=O)(=O)c3cc([N+](=O)[O-])ccc3C)c2)nn1	miR-122 sensor 130
CN(Cc1ccccc1)C(=O)c1ccc(NC(=O)Cc2ccc(NC(=O)C3CCN(C(=O)C4CC4)CC3)cc2)cc1	none (no result: miR-122 sensor, UUG fidelity, PglD DTNB)
COc1ccc(/C=C2\SC(=O)N(CC(=O)Nc3ccc(F)cc3)C2=O)cc1O	none (no result: miR-122 sensor)
CC1(S(=O)(=O)O)CC(=O)c2ccccc2C1=O (configuration not stated)	CFTR F508del cor 8.1
Cc1ccc(Nc2nc(-c3cccnc3)nc3ccccc23)cc1	CFTR F508del cor 12, EWS-Fli block 58
CCS(=O)(=O)N1Cc2ccccc2CC1C(=O)Nc1nc2ccccc2s1 (configuration not stated)	LGR2 inh 58 (no result: CFTR F508del cor, EWS-Fli block)
CCc1nnc(NC(=O)C2Cc3ccccc3CN2S(=O)(=O)CC)s1 (configuration not stated)	none
COc1ccc2c(c1)C(=O)CC(c1ccc3c(c1)OCCO3)O2 (configuration not stated)	CFTR F508del cor 12
O=C(COc1ccc(Br)cc1CO)Nc1ccc(S(=O)(=O)N2CCCC2)cc1	none
Cc1ccc(NC(=O)COc2ccc(Br)cc2CO)cc1S(=O)(=O)N1CCOCC1	CFTR F508del cor 8.6 (no result: miR-122 sensor)
O=C(NC(=S)Nc1cccc2cc(O)ccc12)c1ccccc1Br	none
Cc1ccccc1OCC(O)CNC1CCC(NCC(O)COc2ccccc2C)CC1 (configuration not stated)	EWS-Fli block 69
Cc1ccc(OCC(O)CNC2CCCC2)c(C)c1 (configuration not stated)	none (no result: CFTR F508del cor)
CC(C)(C)C(=O)Nc1ccc(S(=O)(=O)NC2=NCCCCC2)cc1	CFTR F508del cor 15 (no result: miR-122 sensor)
O=C(CCl)Nc1cccc(S(=O)(=O)NC2=NCCCCC2)c1	EWS-Fli block 62
O=C(CCl)Nc1ccc(S(=O)(=O)NC2=NCCCCC2)cc1	none
CCOc1ccc2[nH]c(C(=O)N/N=C/c3ccc(OC)cc3)cc2c1	CFTR F508del cor 18, EWS-Fli block inconclusive (no result: miR-122 sensor)
COc1ccc(/C=N/NC(=O)c2cc3cc(OC)c(OC)cc3[nH]2)cc1	none (no result: CFTR F508del cor)
COc1ccc2[nH]c(C(=O)N/N=C/c3ccc(O)cc3O)cc2c1	CFTR F508del cor 12 (no result: miR-122 sensor)
COc1ccc2cc(C(=O)N/N=C/c3cc(OC)c(OC)c(OC)c3)[nH]c2c1	none
C#CC(CC)(CC)NC(=O)/C=C/C(=O)O	none (no result: UUG fidelity, PglD DTNB, LGR2 inh)
COc1ccc(S(=O)(=O)NC2CC3CCC2C3)cc1Cl (configuration not stated)	miR-122 sensor 108
COc1ccc(S(=O)(=O)NC2CC3CCC2C3)cc1Br (configuration not stated)	none
O=S(=O)(NC1CC2CCC1C2)c1ccc2c(c1)OCCO2 (configuration not stated)	miR-122 sensor 126 (no result: CFTR F508del cor, EWS-Fli block, LGR2 inh)
Cc1noc(C)c1C(=O)N1CC(C)OC(C)C1 (configuration not stated)	none (no result: CFTR F508del cor, EWS-Fli block, LGR2 inh)
COc1ccc(OCc2cccc(C(=O)NN)c2)cc1	none (no result: CFTR F508del cor, EWS-Fli block)
COc1ccc(OCc2cccc(C(=O)Nn3cc([N+](=O)[O-])cn3)c2)cc1	LGR2 inh 99 (no result: CFTR F508del cor, EWS-Fli block)
COC(=O)C[C@H]1C=C[C@H](NC(=O)Nc2ccccc2OC)[C@@H](CO)O1	none (no result: miR-122 sensor, UUG fidelity, PglD DTNB)
COc1ccccc1CNCc1ccc2c(c1)OCO2	none
O=Cc1ccccc1OCc1ccc2c(c1)OCO2	CFTR F508del cor 11 (no result: miR-122 sensor)
Cc1cccc(C(=O)Nc2ccc(S(=O)(=O)N3CCOCC3)cc2)c1[N+](=O)[O-]	none
C=CC[C@]1(C(=O)OC)COC(c2ccc(OCCCO)cc2)=N1	none (no result: miR-122 sensor, LGR2 inh)
COC(=O)[C@@]1(CCS(=O)(=O)c2ccccc2)COC(c2ccc(OCCCO)cc2)=N1	EWS-Fli block 80 (no result: miR-122 sensor, LGR2 inh)
C[C@H]1CN([C@@H](C)CO)C(=O)c2cccc(NC(=O)c3ccc(-c4nccs4)cc3)c2O[C@@H]1CN(C)Cc1ccc(-c2ccccc2)cc1	none
C[C@@H]1CCCCO[C@@H](CN(C)S(=O)(=O)c2ccc(F)cc2)[C@@H](C)CN([C@H](C)CO)C(=O)c2cc(NC(=O)Nc3cccc4ccccc34)ccc2O1	none
N#Cc1c(C(F)(F)F)cc(-c2cccs2)nc1SCc1cccnc1	none (no result: miR-122 sensor, CFTR F508del cor, EWS-Fli block, LGR2 inh)
N#Cc1ccc(-c2cccs2)nc1SCc1cccnc1	CFTR F508del cor 9.0, EWS-Fli block 54
O=C1CNC(=O)/C1=C/c1ccccc1	none
CC1(c2nnnn2Cc2ccccc2)CCC(=O)N1CC(F)(F)F (configuration not stated)	none (no result: miR-122 sensor, UUG fidelity, PglD DTNB)
Cc1ccc(S(=O)(=O)N2C[C@H]3[C@H]4C(=O)N(C)C(=O)[C@H]4CC(=O)[C@H]3[C@@H]2c2ccccc2F)cc1	CFTR F508del cor 8.4 (no result: LGR2 inh)
Cc1ccc(S(=O)(=O)N2C[C@H]3[C@H]4C(=O)N(C)C(=O)[C@H]4CC(=O)[C@H]3[C@@H]2c2ccccc2Cl)cc1	none
C[C@H]1CN([C@@H](C)CO)S(=O)(=O)c2ccc(/C=C/c3ccccc3)cc2O[C@@H]1CN(C)C(=O)Nc1ccc(F)cc1	CFTR F508del cor 10 (no result: UUG fidelity)
C[C@@H]1CN([C@H](C)CO)S(=O)(=O)c2ccc(/C=C/c3ccccc3)cc2O[C@H]1CN(C)C(=O)Nc1ccc(F)cc1	none
C[C@H]1CN([C@@H](C)CO)S(=O)(=O)c2ccc(/C=C/c3ccccc3)cc2O[C@@H]1CN(C)C(=O)NC1CCCCC1	none (no result: UUG fidelity)
C/C=C/c1ccc2c(c1)O[C@H](CN(C)C(=O)Nc1cccc(F)c1)[C@H](C)CN([C@@H](C)CO)S2(=O)=O	none (no result: UUG fidelity)
